# Measurements taken from PubChem BioAssay AID602252 (Broad Institute, 2012).
# The entries are a selection whose mix differs from that of the whole data set. Active and inactive are the calls of the source.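 How the source made its calls: active means mean inhibition of at least 30% with at least half of replicates also reaching 30%; inconclusive means no clear call, values can overlap the other calls; inactive means the rest.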
# Biological target: Golgi-associated PDZ and coiled-coil motif-containing protein (Homo sapiens) (UniProt Q9HD26)
# Test: untagged CAL PDZ binding inhibitors, primary screen, biochemical, fluorescence polarization, HTS (AID 602252);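 further: 0% = DMSO neutral control and 100% = excess unlabeled competitor peptide PRC23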
# Details: purified CAL PDZ, TMR-peptide fluorescence polarization, 1 h; at 24.9 µM; stronger effect = higher value
row,Compound,inhibition
1,O=C(NCC1(N2CCCCC2)CCCCC1)c1cccc(C(F)(F)F)c1,inactive: -0.286%
2,CC(C)c1ccc(C(=O)NCC2(N3CCOCC3)CCCCC2)cc1,inactive: -3.53%
3,CN1CCN(CCOC(=O)C(O)(c2ccccc2)c2ccccc2)CC1,inactive: 0.759%
4,O=C(NCC1(N2CCOCC2)CCCCC1)c1cc(=O)[nH]c2ccccc12,inactive: -1.39%
5,O=C(NCC1(N2CCCCC2)CCCCC1)c1ccc(OC(F)F)cc1,inactive: -1.8%
6,CSc1ccc(C(=O)NCC2(N3CCOCC3)CCCCC2)cc1,inactive: -2.56%
7,O=C(NCC1(N2CCCCC2)CCCCC1)c1cccc([N+](=O)[O-])c1,inactive: -2.75%
8,CCN1CCC(Nc2ccc(Cl)cc2)CC1,inactive: -3.4%
9,N#CC1(Nc2ccccc2)CCN(CCc2ccccc2)CC1,inactive: 0.487%
10,CCCOc1ccc(C(=O)NCC2(N(C)C)CCCCC2)cc1OC,inactive: 0.818%
11,COc1ccc(CN(CCCl)CCCl)cc1Cl,inactive: -4.98%
12,CN(C)c1cccc(C(=O)NCC2(N3CCCCC3)CCCCC2)c1,inactive: -0.899%
13,CC(C)c1ccc(NC2CCN(C(=O)OC(C)(C)C)CC2)cc1,inactive: -2.42%
14,COc1cc(OC)c(C(=O)NCC2(N(C)C)CCCCC2)cc1OC,inactive: -2.5%
15,O=C(NCC1(N2CCOCC2)CCCCC1)c1cc(F)c(F)cc1Cl,inactive: 2.02%
16,O=C(NCC1(N2CCOCC2)CCCCC1)c1cc2ccccc2o1,inactive: -4%
17,O=C(NCC1(N2CCCCC2)CCCCC1)c1ccc(Cl)nc1,inactive: -2.72%
18,Cc1cc(C)cc(N(C(=O)c2ccccc2)C2CCN(C(=O)OC(C)(C)C)CC2)c1,inactive: -8.4%
19,CCOC(=O)N1CCC(Nc2ccc(OC)cc2)CC1,inactive: -1.18%
20,N#CC1(Nc2ccccc2)CCN(Cc2ccccc2)CC1,inactive: -0.338%
21,O=C(NCC1(N2CCCCC2)CCCCC1)c1ccc(Cl)s1,inactive: 0.634%
22,O=C(OC1CN2CCC1CC2)C1c2ccccc2Oc2ccccc21 (stereo not drawn),inactive: -2.67%
23,COc1ccc(Cl)cc1C(=O)NCC1(N2CCOCC2)CCCCC1,inactive: -6.82%

row,Compound,inhibition
1,O=C(NCC1(N2CCCCC2)CCCCC1)c1ccc(=O)[nH]c1,inactive: -1.57%
2,O=C(NCC1(N2CCCCC2)CCCCC1)c1cccs1,inactive: -6.38%
3,COc1ccc(C(=O)NCC2(N3CCCCC3)CCCCC2)cc1,inactive: -2.1%
4,CC(C)(C)OC(=O)N1CCC(N(C(=O)c2ccccc2)c2ccc(F)cc2)CC1,inactive: -5.49%
5,CSc1ccccc1C(=O)NCC1(N2CCCCC2)CCCCC1,inactive: -4.47%
6,Cc1cccc(NC2(C#N)CCN(Cc3ccccc3)CC2)c1,inactive: 0.261%
7,CCOC(=O)N1CCC(Nc2cccc(C)c2)CC1,inactive: -1.12%
8,COc1cc(C(=O)NCC2(N(C)C)CCCCC2)ccc1OC(F)F,inactive: -3.94%
9,CCOc1ccc(C)cc1CN(CCCl)CCCl,inactive: -2.4%
10,O=C1CCN(Cc2ccccc2)CC1,inactive: -1.58%
11,CCCCOc1ccc(C(=O)NCC2(N3CCOCC3)CCCCC2)cc1,inactive: -1.69%
12,O=P1(N(CCCl)CCCl)SCCCS1,inactive: -8.34%
13,O=C(NCC1(N2CCCCC2)CCCCC1)c1ccc(F)cc1,inactive: -2.6%
14,CCOC(=O)N1CCC(Nc2ccc(F)cc2)CC1,inactive: -4.49%
15,COc1ccc(NC2CCN(CCc3ccccc3)CC2)c(OC)c1,inactive: 0.846%
16,Cc1ccccc1NC1(C#N)CCN(Cc2ccccc2)CC1,inactive: -4.16%
17,CCN1CCC(Nc2cccc(F)c2)CC1,inactive: -3.1%
18,O=C(NCC1(N2CCCCC2)CCCCC1)c1ccco1,inactive: -3.63%
19,CN(C)c1ccc(C(=O)NCC2(N3CCCCC3)CCCCC2)cc1,inactive: -4.09%
20,Cn1c(=O)[nH]cc(N(CCCl)CCCl)c1=O,inactive: -0.332%
21,COc1cc(OC)cc(C(=O)NCC2(N3CCCCC3)CCCCC2)c1,inactive: -0.907%
22,CC(=O)N(c1ccccc1)C1CCNCC1,inactive: -6.08%
23,Cc1ccc(NC2(C#N)CCN(Cc3ccccc3)CC2)cc1,inactive: -0.863%

row,Compound,inhibition
1,Cc1ccc(C(=O)NCC2(N3CCCCC3)CCCCC2)o1,inactive: 1.64%
2,Fc1ccccc1NC1CCN(Cc2ccccc2)CC1,inactive: 1.45%
3,CCC(CO)(C(=O)OC1CN2CCC1CC2)c1ccccc1 (stereo not drawn),inactive: 1.65%
4,COc1cccc(C(=O)N(c2cc(C)cc(C)c2)C2CCN(C(=O)OC(C)(C)C)CC2)c1,inactive: -2.21%
5,CN1CCC(Nc2ccc(Cl)cc2)CC1,inactive: 0.235%
6,CCOc1ncccc1C(=O)NCC1(N2CCOCC2)CCCCC1,inactive: -8.58%
7,CN1CCC(Nc2ccc(F)c(Cl)c2)CC1,inactive: -1.31%
8,CCCOc1ccc(C(=O)NCC2(N(C)C)CCCCC2)cc1,inactive: -10.5%
9,CC(C)(C)OC(=O)N1CCC(Nc2ccccc2)CC1,inactive: -3.35%
10,O=C(O)C1(Nc2ccccc2)CCN(Cc2ccccc2)CC1,inactive: -0.153%
11,N/C(=N\O)c1c(N)no[n+]1[O-],inactive: 1.28%
12,CCOC(=O)N1CCC(Nc2ccc(C)cc2)CC1,inactive: -0.338%
13,O=C(OC1CN2CCC1CC2)C1c2ccccc2C=Cc2ccccc21 (stereo not drawn),inactive: -3.92%
14,O=C(NCC1(N2CCOCC2)CCCCC1)c1cc(Br)ccc1Cl,inactive: -5.53%
15,COc1cc(C(=O)NCC2(N3CCOCC3)CCCCC2)cc(OC)c1C,inactive: -2.26%
16,COc1ccc(C(=O)NCC2(N3CCOCC3)CCCCC2)cc1OC,inactive: 2.13%
17,c1ccc(CN2CCC(Nc3ccccc3)CC2)cc1,inactive: -4.81%
18,Cc1cc(N(CCCl)CCCl)ccc1C=O,inactive: -0.628%
19,CCCN1CCC(Nc2cc(OC)cc(OC)c2)CC1,inactive: -1.84%
20,CN(C)C1(CNC(=O)c2cccc(C#N)c2)CCCCC1,inactive: 2.76%
21,CC(C)(C)OC(=O)N1CCC(N(C(=O)c2ccccc2)c2ccc(Cl)cc2)CC1,inactive: -1.54%
22,N#Cc1ccc(C(=O)NCC2(N3CCCCC3)CCCCC2)cc1,inactive: -3.76%
